Assay results taken from ChEMBL document CHEMBL3808287, “AXL Inhibitors in Cancer: A Medicinal Chemistry Perspective” (J Med Chem, 2016).

Biological target: T1, Tyrosine-protein kinase Mer (Homo sapiens, UniProt Q12866)
T1 sequence (Q12866 whole entry): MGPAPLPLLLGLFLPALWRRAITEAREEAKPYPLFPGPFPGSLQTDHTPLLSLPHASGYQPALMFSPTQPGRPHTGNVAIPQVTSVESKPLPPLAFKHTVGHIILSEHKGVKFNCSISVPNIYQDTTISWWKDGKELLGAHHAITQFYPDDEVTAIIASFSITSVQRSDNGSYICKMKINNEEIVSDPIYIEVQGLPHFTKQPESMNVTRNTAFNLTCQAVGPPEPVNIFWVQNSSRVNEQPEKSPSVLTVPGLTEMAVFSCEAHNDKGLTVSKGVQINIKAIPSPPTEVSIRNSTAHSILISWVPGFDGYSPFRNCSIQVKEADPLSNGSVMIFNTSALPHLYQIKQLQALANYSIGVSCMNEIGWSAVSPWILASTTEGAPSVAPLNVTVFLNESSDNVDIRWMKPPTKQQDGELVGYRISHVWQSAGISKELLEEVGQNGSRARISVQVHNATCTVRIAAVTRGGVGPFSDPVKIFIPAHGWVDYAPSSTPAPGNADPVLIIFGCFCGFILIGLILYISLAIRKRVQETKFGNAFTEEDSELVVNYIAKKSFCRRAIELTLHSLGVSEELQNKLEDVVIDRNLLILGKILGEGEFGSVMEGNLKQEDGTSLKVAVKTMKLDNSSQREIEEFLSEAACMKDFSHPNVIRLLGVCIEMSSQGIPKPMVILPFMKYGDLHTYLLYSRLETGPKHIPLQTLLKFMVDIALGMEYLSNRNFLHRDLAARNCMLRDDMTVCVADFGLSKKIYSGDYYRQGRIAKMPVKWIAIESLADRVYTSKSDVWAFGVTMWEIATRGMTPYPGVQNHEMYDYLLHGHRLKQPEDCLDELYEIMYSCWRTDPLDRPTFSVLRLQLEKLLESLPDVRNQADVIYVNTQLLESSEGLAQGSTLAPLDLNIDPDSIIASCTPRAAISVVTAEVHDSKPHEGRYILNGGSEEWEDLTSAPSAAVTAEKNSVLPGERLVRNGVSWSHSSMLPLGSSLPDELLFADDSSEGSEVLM
Experiment: Inhibition of human recombinant MER by fluorescence polarization assay

Nc1nc(Nc2ccc3c(c2)CC[C@@H](N2CCCC2)CC3)nn1-c1cc2c(nn1)-c1ccccc1CCC2 [BEMCENTINIB]
IC50: > 700 nM
